Earlier results as cited in patent US9987593B2, “Method for producing NOx storage-reduction catalyst” (TOYOTA JIDOSHA KABUSHIKI KAISHA, priority 2016, dated 2018).

Substance	solubility in water (in words)
potassium tetranitrophenothiazine-9-oxide	substantially insoluble in water
potassium tetranitroacridone	substantially insoluble in water
